Target: 5-hydroxytryptamine receptor 2B (Rattus norvegicus, UniProt P30994)

Amino acid sequences for entries named in this document (tags omitted).
UniProt P30994, whole entry: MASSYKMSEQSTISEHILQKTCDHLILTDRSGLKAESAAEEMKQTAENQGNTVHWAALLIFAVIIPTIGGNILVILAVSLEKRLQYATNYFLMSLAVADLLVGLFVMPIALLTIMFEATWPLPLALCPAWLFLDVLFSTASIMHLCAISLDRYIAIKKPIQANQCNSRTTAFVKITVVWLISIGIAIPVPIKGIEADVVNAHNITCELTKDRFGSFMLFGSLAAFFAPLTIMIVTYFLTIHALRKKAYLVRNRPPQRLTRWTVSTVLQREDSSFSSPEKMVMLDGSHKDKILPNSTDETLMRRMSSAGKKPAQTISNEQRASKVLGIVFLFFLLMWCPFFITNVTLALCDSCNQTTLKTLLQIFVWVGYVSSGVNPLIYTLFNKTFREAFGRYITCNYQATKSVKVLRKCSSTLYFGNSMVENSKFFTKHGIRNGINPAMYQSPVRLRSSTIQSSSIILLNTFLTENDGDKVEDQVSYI

In the case of `COc1cc(CC(C)N)c(OC)cc1Br` (stereo not drawn) [2-(4-Bromo-2,5-dimethoxy-phenyl)-1-methyl-ethylamine((-)-DOB)], the Ki is reported as 21.8 nM.

From BindingDB's records for doi:10.1007/pl00005315 (Eli Lilly, 1999)
